Experimental data as given in US6537988B2, “Synergistic methods and compositions for treating cancer” (Bristol-Myers Squibb Company, priority 2000, dated 2003).

Experiments:
[1] = Maximum tolerated dose / regimen in tumor-bearing mice; assay type: in vivo, nude mice; details: HCTVM46 study FIG. 13; single agents, q4d×3
[2] = tested on: HCT-116 human colon carcinoma cells; assay: Clonogenic cell colony-formation assay, stationary vs log phase cells; details: IC90 Log / IC90 Stationary, HCT116

Row | SMILES | maximum tolerated regimen [1] | Non-proliferative cells selectivity ratio (fold) [2]
1 | N#Cc1ccc2c(c1)CN(S(=O)(=O)c1cccs1)[C@H](Cc1ccccc1)CN2Cc1cnc[nH]1 | 400 mg/kg | –
2 | N#Cc1ccc2c(c1)CN(S(=O)(=O)c1cccs1)[C@H](Cc1ccccc1)CN2Cc1c[nH]cn1 | – | 44.2 fold
